## Measured affinities in a library of Ab-14 light chain variants

Target: peptide PDVDLGDISGINAS, taken from heptad repeat 2 (HR2) of SARS-CoV-2 spike.

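The parent was found by panning a naive human phage display library on the peptide. Variants in AAYL50 differ from the parent at up to three CDR positions; double and triple changes were sampled at random. Affinity was read by AlphaSeq, a pooled yeast mating assay with surface-displayed partners. The frequency of each diploid, read from paired DNA barcodes, reflects how well the two displayed proteins bind. Each replicate has its own calibration line, from reference interactions of the BCL2 family. The assay was run in three technical replicates.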

Ab-14 is the parent antibody, in scFv form: VH, then a (GGGGS)3 linker, then VL. The heavy chain is unchanged in all variants.
VH: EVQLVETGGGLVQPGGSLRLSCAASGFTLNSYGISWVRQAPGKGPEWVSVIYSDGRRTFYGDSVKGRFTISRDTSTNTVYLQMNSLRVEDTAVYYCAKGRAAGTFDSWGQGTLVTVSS
VL: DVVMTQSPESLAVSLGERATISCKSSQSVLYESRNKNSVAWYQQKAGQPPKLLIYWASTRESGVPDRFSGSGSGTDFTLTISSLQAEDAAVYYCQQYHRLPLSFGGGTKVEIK

Each variant is given by its three light chain CDRs, as the data file delimits them; those of the parent are KSSQSVLYESRNKNSVA, WASTRES, QQYHRLPLS.
All variants listed here change Y31 of the VL, counted from its first residue.
Numbers give log10(Kd / nM), so 0 is 1 nM and 3 is 1 µM. Smaller is tighter.
The mean shown is taken over the replicates in which the pair was detected.
A pair that was not seen in that replicate is written "ND"; this usually means weak binding, but a binder can also be missed.
Background: pairings of library AAYL50 with three empty control strains gave a value in 18% of cases (median 4.19, 5th percentile 2.99). Values in that range, when seen in few replicates, are hard to tell from nonspecific mating.

KASQSVLCESRNKNSVA, WASTRES, QQYHRLTLS: ND, ND, 4.33.
KSSQSVLWESRNKNHVA, WASTRES, QQYHRLFLS: ND, ND, ND.
FSSQSVLNESRNKNSVA, WASTRYS, QQYHRLPLS: ND, ND, ND.
KSSQSVLAESRNKNSVA, WASTRES, QQMLRLPLS: ND, ND, ND.
KSSQSVLPESHNKNSVA, WASTRES, QQYHRLCLS: 2.72, 3.22, 2.05 (mean 2.66).
KSSQSVLRESRNKNSVA, WASTREE, QDYHRLPLS: 1.13, 1.26, 1.41 (mean 1.27).
KSSYSVLTESRNKNSVA, HASTRES, QQYHRLPLS: 0.22, 0.53, 0.30 (mean 0.35).
KNSQSVIDESRNKNSVA, WASTRES, QQYHRLPLS: 1.03, 1.09, 1.28 (mean 1.13).
KSSQSNLLESRNNNSVA, WASTRES, QQYHRLPLS: 0.64, 0.84, 1.13 (mean 0.87).
KSSQSVLHESRVKNSVA, WASTRCS, QQYHRLPLS: 1.99, 2.29, 2.66 (mean 2.31).
LSSQSVLPTSRNKNSVA, WASTRES, QQYHRLPLS: ND, 2.85, ND.
KSSTSVLEESRNKNSVA, WASTSES, QQYHRLPLS: 2.27, 2.10, 2.77 (mean 2.38).
KSSQSVLRESRRKNSVA, WASSRES, QQYHRLPLS: 4.27, ND, ND.
PSSQWVLPESRNKNSVA, WASTRES, QQYHRLPLS: 2.77, 2.36, 3.13 (mean 2.75).
KSSISVLKESRNKNSVA, WASTRRS, QQYHRLPLS: ND, ND, ND.
KSSQSLLHESRNKNSVA, WAWTRES, QQYHRLPLS: 1.08, 1.07, 1.41 (mean 1.19).
FSSQSVLNESRNKNSVA, WASTRES, QYYHRLPLS: 1.66, 1.92, 1.50 (mean 1.69).
KSSQSVLSESRNKNSVA, WASTRES, QQYHMLPLL: 0.61, 0.65, 0.66 (mean 0.64).
KSSQMVLHESRNKNSVA, WISTRES, QQYHRLPLS: ND, ND, ND.
KSSQSQLVESRNKNSRA, WASTRES, QQYHRLPLS: 6.03, ND, ND.
KSSQSVAEESRNKNSVA, WASTRES, QQYHRLPLS: 1.43, 1.46, 1.57 (mean 1.49).
KSSQSVLHESRNKNSVA, WASTGES, QVYHRLPLS: ND, ND, ND.
KSSCSVLGESRNKNSVA, WRSTRES, QQYHRLPLS: ND, ND, 4.34.
KSSQSVLIESGNKNSVA, WASTRES, QQYHRLRLS: 1.19, 1.13, 0.97 (mean 1.10).
KSSQSVLMESRNANSVA, WASTREL, QQYHRLPLS: 0.53, 0.71, 0.62 (mean 0.62).
KSSQSVLGESRNKNSVA, WLSTRNS, QQYHRLPLS: ND, ND, 5.10.
KSSQSVLAESRNKNSVA, WASTRRS, QQYHVLPLS: ND, ND, ND.
KSSQSVLVESYLKNSVA, WASTRES, QQYHRLPLS: 1.35, 1.37, 1.53 (mean 1.42).
KSSQSVLRESRNKNSVA, WAPTMES, QQYHRLPLS: ND, ND, 5.40.
KSSQSVHRESRNKNSVA, WASTRES, QGYHRLPLS: 4.07, 2.94, ND (mean 3.50).
KSSQSVLDESRNKNSVA, KASLRES, QQYHRLPLS: 0.43, 0.64, 0.43 (mean 0.50).
KSSQSVQGESRNKNSLA, WASTRES, QQYHRLPLS: 0.72, 0.77, 0.70 (mean 0.73).
KSSQSVLFESRNKNSVA, DASTRES, QQYHRLPLS: -0.90, -0.40, -0.72 (mean -0.67).
KSSQSVLRESRNKNSVA, WASMRGS, QQYHRLPLS: ND, 3.60, ND.
FSSQSVLDESRNKKSVA, WASTRES, QQYHRLPLS: 1.05, 1.21, 1.20 (mean 1.15).
KSEQSVLSESRNKNSVA, WASTRGS, QQYHRLPLS: 1.99, 1.69, 1.98 (mean 1.89).
KSSQSVLSESRNKNSVA, WASTLES, QQYHRLFLS: 0.63, 0.98, 0.84 (mean 0.82).
KSSLSVLREWRNKNSVA, WASTRES, QQYHRLPLS: 2.29, 4.01, 2.04 (mean 2.78).

Excerpt, the first 6 entries:

CDR-L1	CDR-L2	CDR-L3	log10 Kd, replicates	mean log10 Kd (nM)
KASQSVLCESRNKNSVA	WASTRES	QQYHRLTLS	ND, ND, 4.33	4.33
KSSQSVLWESRNKNHVA	WASTRES	QQYHRLFLS	ND, ND, ND	ND
FSSQSVLNESRNKNSVA	WASTRYS	QQYHRLPLS	ND, ND, ND	ND
KSSQSVLAESRNKNSVA	WASTRES	QQMLRLPLS	ND, ND, ND	ND
KSSQSVLPESHNKNSVA	WASTRES	QQYHRLCLS	2.72, 3.22, 2.05	2.66
KSSQSVLRESRNKNSVA	WASTREE	QDYHRLPLS	1.13, 1.26, 1.41	1.27

Data: MIT Lincoln Laboratory AlphaSeq set, Engelhart et al. 2022, doi:10.1038/s41597-022-01779-4, as distributed in FLAb.